Results on 1 molecule are retold here after patent publication US6800658B2, “Substituted diphenyl indanone, indane and indole compounds and analogues thereof useful for the treatment of prevention of diseases characterized by abnormal cell proliferation” (Children's Medical Center Corporation, priority 1997, dated 2004).

A value given as a limit tells only on which side of the number the result lay.

As a reminder, the IC50 is the point on the concentration scale where inhibition reaches its midpoint. Lower therefore signals greater potency in that assay.

The test system of the assay is U118MG. The assay is described as follows: SRB antiproliferative assay, U118MG. It counts as cell-based. The note with it: Homo sapiens, U-118-MG, 120 h; CNS; 5% FCS, 5 Day Incubation. The source says: The cells were passaged using Trypsin (Gibco).
(In general: Sulforhodamine B stains cellular protein and so reports cell mass.)

In turn, `O/N=C1\CC(c2ccc(Cl)cc2)(c2ccc(Cl)cc2)c2ccc(Cl)cc21` [Compound 11] yielded an IC50 greater than 10 µM.
